Laboratory results as given in patent publication US8790689B2, “Tamper resistant transdermal dosage form” (dated 2014).
This is a selection: effects in other tests are not listed, and their absence says nothing. A number of entries come with more than one value. They are shown here; other results are not. An entry can have further records. Values that stand side by side do not match, cause unknown; some may be repeats, others may stem from another dose, organism or construct than stated. Signs of the kind (2×) give the number of equal values in this list.

Experiment: Plasma pharmacokinetics after single intraperitoneal co-administration of fentanyl and naltrexone
[1] = Group 1, SAN 1-5: fentanyl 125 μg/kg and naltrexone 125 μg/kg i.p.
[2] = Group 2, SAN 6-10: fentanyl 125 μg/kg and naltrexone 31.3 μg/kg i.p.
[3] = Group 3, SAN 11-15: fentanyl 125 μg/kg and naltrexone 12.5 μg/kg i.p.

Row | Molecule | AUCinf (individual rats) [1] | Cmax (individual rats) [2] | AUCinf (individual rats) [3] | Cmax (individual rats) [3] | Cmax (individual rats) [1] | tmax (individual rats) [2] | t1/2 (individual rats) [3]
1 | CCC(=O)N(c1ccccc1)C1CCN(CCc2ccccc2)CC1 | 8657, 28382, 25082, 7301 pg · h/mL | 19645, 10778, 27269, 11220, 41969 pg/mL | 23772, 27690, 23180, 5387 pg · h/mL | 17851, 24730, 27825, 6417, 5950 pg/mL | – | – | –
2 | norfentanyl | – | – | 5096, 5245, 4303, 9417, 6203 pg · h/mL | 911, 965, 1457, 2692, 3019 pg/mL | 2474, 3572, 1595, 1870, 3245 pg/mL | 0.750, 0.333 (2×), 1.00, 1.50 h | 3.34, 3.48, 1.60, 1.41, 1.81 h
